Assays:
[1] = system: Diaphorase (EC 1.8.1.4) from Clostridium kluyveri; test: RDX biotransformation assay with diaphorase; conditions: for Concentration of Reactants/metabolites: RDX transformation, pH 7.0, 27° C., anaerobic, NADH; for % Nitrogen recovery: of total nitrogen mass in the transformed RDX (78 μmole)
[2] = Photolysis of RDX in aqueous solution at 350 nm; conditions: for product amount, μmole ± SD: RDX (0.46 μmole) after 16 h of photolysis at 350 nm in water; for N-content % / C-content %: RDX after 16 h of photolysis at 350 nm
[3] = system: Rhodococcus sp. strain DN22; test: Aerobic degradation of RDX with Rhodococcus sp. strain DN22; conditions: pH 7
[4] = Alkaline hydrolysis of cyclic nitramines in aqueous solution
[5] = target: Aspergillus niger NAD(P)H: Nitrate oxidoreductase (EC 1.6.6.2) (Aspergillus niger, UniProt P36858); test: Nitrate reductase catalyzed RDX transformation; conditions: for Concentration of Reactants/metabolites: RDX transformation, after 150 minutes of reaction, anaerobic, NADPH; for % Nitrogen recovery: of total nitrogen mass in the transformed RDX (86 μmole)
[6] = higher than RDX; cited from earlier work

The chains behind the UniProt entries cited, without tags or fusion partners. Where a name states a change or a piece, a line headed by the entry shows the natural chain unless it says otherwise.
UniProt P36858: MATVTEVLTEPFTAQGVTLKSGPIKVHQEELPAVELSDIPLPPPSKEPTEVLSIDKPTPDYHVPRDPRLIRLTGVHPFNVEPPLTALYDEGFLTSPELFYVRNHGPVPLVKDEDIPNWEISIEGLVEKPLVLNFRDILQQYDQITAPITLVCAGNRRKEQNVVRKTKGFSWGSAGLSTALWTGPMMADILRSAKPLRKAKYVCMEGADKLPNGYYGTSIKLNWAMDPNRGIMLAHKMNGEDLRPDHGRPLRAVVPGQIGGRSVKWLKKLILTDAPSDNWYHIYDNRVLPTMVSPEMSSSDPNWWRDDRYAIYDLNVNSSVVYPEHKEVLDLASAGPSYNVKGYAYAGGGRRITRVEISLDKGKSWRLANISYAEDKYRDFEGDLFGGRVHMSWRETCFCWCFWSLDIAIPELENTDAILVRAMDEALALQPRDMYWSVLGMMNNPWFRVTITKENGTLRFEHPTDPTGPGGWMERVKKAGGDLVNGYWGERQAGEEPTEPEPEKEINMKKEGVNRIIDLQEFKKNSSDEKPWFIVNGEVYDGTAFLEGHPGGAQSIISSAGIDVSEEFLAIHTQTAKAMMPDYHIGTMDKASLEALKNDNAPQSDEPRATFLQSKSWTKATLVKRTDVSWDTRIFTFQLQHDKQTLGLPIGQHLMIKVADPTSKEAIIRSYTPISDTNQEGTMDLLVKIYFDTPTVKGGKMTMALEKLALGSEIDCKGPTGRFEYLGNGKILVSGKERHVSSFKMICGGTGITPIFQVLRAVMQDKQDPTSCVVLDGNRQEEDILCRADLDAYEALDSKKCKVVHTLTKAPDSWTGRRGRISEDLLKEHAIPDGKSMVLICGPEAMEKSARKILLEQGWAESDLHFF

Compound: Nitrite
- Concentration of Reactants/metabolites [1]: 69.0 µmol
- % Nitrogen recovery [1]: 15.0%
- % Nitrogen recovery ([1]; listed as nitrite): 15%

Compound: O=CNCN[N+](=O)[O-]
- stability to light ([2]; 350 nm): degraded slowly
- product amount, μmole ± SD [2]: 0.205 ± 0.019 µmol
- N-content % [2]: 22.2%
- C-content % ([2]; listed as O2NNHCH2NHCHO (V)): 31.5%
- C-content % ([2]; listed as O2NNHCH2NHCHO(V)): 29.6%
- persistence in incubation mixtures with strain DN22 [3]: persist indefinitely
- formation of 4-NDAB ([4]; pH 10, first three hours, RDX hydrolysis): 0.04 pmol

Compound: formamide
- fraction converted on incubation with nitrate reductase ([5]; 50 μM, with NADPH, one hour, pH 7.0, 30° C., formamide to HCHO and NH4+, hydrazine to NH4+): roughly 50%
- product amount, μmole ± SD [2]: 0.436 (a) μmole
- C-content % [2]: 31.5%
- N-content % [2]: 15.7%
- C-content % ([2]; listed as NH2CHO): 31.9%

Compound: O=CO
- product amount, μmole ± SD [2]: 0.126 ± 0.026 µmol
- C-content % [2]: 9.1%

Compound: [N-]=[N+]=O
- Concentration of Reactants/metabolites [1]: 129.0 µmol
- Concentration of Reactants/metabolites ([1]; listed as N2O): 129 µmol
- % Nitrogen recovery [1]: 55.0%
- % Nitrogen recovery ([1]; listed as N2O): 55%
- Concentration of Reactants/metabolites ([5]; pH 7.0, 30° C.): 148 µmol
- % Nitrogen recovery [5]: 57.37%
- product amount, μmole ± SD [2]: 0.160 ± 0.009 µmol
- N-content % [2]: 11.6%
- half-life of N2O formation ([4]; RDX hydrolysis, pH 10): 91 h
- N2O present as share of total nitrous oxide expected to form ([4]; t=316 h, pH 10): 91%

Compound: NADPH
- Concentration of Reactants/metabolites ([5]; pH 7.0, 30° C.): 280 µmol

Compound: pentahydro-3,5-dinitro-1,3,5-triazacyclohex-1-ene
- rate of hydrolysis relative to RDX [6]: 5 orders of magnitude

Compound: nitrate
- type of inhibition of nitrate reductase catalyzed RDX transformation ([5]; Lineweaver-Burk's plots, 0, 20, 100 μM nitrate): competitive inhibitor

Compound: Cc1cc2nc3c(=O)[nH]c(=O)nc-3n(C[C@H](O)[C@H](O)[C@H](O)COP(=O)(O)O)c2cc1C
- maximum RDX transformation activity of reconstituted deflavo enzyme ([1]; FMN concentration of 200 μM): 85%
- RDX transformation rate of free FMN ([1]; commercially available FMN in free form, NADH as electron donor, vs diaphorase-bound FMN): comparatively lower

Compound: NADH
- Concentration of Reactants/metabolites [1]: 110.0 µmol

Compound: Ammonium ion
- Concentration of Reactants/metabolites [1]: 62.0 µmol
- % Nitrogen recovery [1]: 13.0%
- % Nitrogen recovery ([1]; listed as ammonium): 13%
- Concentration of Reactants/metabolites ([5]; pH 7.0, 30° C.): 88 µmol
- % Nitrogen recovery [5]: 16.98%
